Sequences of proteins named here, by UniProt entry; tags and fusion partners are left off. A change or cut given only in a name is not applied to a line headed by its entry.
UniProt Q8TCC7: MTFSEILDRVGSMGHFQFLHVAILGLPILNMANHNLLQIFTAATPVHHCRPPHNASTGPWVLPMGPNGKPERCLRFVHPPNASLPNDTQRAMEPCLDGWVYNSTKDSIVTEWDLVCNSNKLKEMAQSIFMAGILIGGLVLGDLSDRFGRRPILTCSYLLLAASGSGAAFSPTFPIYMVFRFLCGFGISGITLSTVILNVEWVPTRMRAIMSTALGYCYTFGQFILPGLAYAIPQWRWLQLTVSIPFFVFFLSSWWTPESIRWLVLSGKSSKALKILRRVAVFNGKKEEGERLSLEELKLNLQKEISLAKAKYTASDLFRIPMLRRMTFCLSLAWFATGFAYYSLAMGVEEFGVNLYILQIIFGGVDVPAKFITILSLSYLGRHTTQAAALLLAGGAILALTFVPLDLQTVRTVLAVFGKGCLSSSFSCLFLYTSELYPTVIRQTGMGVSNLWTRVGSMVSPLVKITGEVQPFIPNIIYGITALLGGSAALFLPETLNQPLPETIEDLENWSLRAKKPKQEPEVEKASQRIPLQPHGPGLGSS

In patent publication US20180147301A1, “SOLID ORAL COMPOSITION CONTAINING DYES” (COSMO TECHNOLOGIES LTD., priority 2016, published 2018):

Biological target: OAT3 (Homo sapiens, UniProt Q8TCC7)
Conditions: in vitro

CN(C)c1ccc2nc3ccc(=[N+](C)C)cc-3sc2c1 [Methylene blue, Methylthioninium Chloride (Methylene Blue)]
substrate of membrane transport protein OAT3: possible substrate
